# Assay results as given in PubChem BioAssay AID720707 (National Center for Advancing Translational Sciences (NCATS), 2013).
# Chains of the proteins cited; added tags and fusions are not shown.
# UniProt O95398, whole entry: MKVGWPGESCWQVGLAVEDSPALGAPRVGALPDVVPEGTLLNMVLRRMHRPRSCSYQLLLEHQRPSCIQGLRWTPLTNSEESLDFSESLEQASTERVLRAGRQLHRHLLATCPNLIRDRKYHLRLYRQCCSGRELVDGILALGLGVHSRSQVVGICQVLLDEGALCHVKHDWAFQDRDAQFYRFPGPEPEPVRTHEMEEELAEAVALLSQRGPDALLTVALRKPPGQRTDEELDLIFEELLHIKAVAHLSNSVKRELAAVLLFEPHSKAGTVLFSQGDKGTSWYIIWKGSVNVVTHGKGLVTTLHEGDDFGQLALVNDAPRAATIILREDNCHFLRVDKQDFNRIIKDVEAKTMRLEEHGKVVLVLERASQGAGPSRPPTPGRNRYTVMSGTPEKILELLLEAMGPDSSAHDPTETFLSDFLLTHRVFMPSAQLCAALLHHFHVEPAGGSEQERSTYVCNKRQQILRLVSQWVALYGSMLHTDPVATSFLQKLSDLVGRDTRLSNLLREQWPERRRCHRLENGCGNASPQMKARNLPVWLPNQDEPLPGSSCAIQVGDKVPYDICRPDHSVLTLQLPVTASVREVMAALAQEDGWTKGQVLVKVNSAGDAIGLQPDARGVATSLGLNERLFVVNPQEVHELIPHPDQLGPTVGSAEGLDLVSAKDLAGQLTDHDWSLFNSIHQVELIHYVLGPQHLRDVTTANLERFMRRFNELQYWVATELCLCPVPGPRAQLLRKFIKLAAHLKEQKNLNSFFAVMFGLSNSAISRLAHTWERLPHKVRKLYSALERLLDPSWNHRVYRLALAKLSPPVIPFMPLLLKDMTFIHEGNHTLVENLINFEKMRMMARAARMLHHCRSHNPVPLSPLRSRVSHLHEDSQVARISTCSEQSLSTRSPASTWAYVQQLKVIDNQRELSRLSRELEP
# This is a selection; strong and weak results do not stand in their true shares. Some salts and complexes are drawn in separate pieces, as the source files them; their charges need not balance. The source made the active and inactive calls. Calls follow the shape of the dose curve; as a rule, active = well fitted activation curve with a large enough effect; inconclusive = small, poorly fitted or top-dose-only effect; inactive = no such curve, though single readings can be large or run the other way.
# Target: Rap guanine nucleotide exchange factor 3 (Homo sapiens) (UniProt O95398)
# Test: qHTS for Agonist of cAMP-regulated guanine nucleotide exchange factor 3 (EPAC1): primary screen; also: nearly all actives have a fitted effect of over 60% in size
# Settings: biochemical assay; at 154 µM (top of the series), 100% = response to 6.5 mM cAMP unless noted
# Description: In multi-cellular eukaryotic organisms, the effects of cAMP are transduced by two ubiquitously-expressed intracellular cAMP receptors, the classic protein kinase A/cAMP-dependent protein kinase (PKA/cAPK) and the more recently discovered exchange protein directly activated by cAMP/cAMP-regulated guanine nucleotide exchange factor (EPAC/cAMP-GEF). Both PKA and EPAC are ubiquitously expressed in all tissues, and an increase in intracellular cAMP levels will lead to the activation of both PKA and EPAC. Therefore, careful dissections of the individual role and relative contribution of EPAC and PKA within the overall cAMP signaling in various model systems are critical for further elucidating the mechanism of cAMP signaling. To date no EPAC-specific antagonists and agonist, as well as isoform-specific agonists have been reported, and developing EPAC-specific pharmacological probes to determine the physiological functions that EPAC play in the overall cAMP-mediated signaling remains a major challenge within the research field. Furthermore, identified regulators of EPAC may lead to new mechanism-based therapeutic strategies specifically targeting the EPAC / cAMP-signaling components as EPAC has been implicated to play important roles in major human pathological conditions such as diabetes, heart disease, and cancer.
# This qHTS will be used to screen the Molecular Libraries Small Molecule Repository (MLSMR) as a concentration-titration series using the NCGC unique quantitative screening (qHTS) platform to find activators for EPAC1. In addition, this assay will also be used as a counterscreen for the EPAC2 qHTS. This fluorescent based assay is developed and validated for EPAC1 that measures exchange using EPAC effector Rap1 complex with BODIPY-GDP, a GDP analog with a tethered fluorophores. Activators are identified by monitoring the change in fluorescence signal as the exchanged free BODIPY-GDP has a reduced fluorescence compared to Rap1-bound BODIPY-GDP. Increase in signal (activation) is the desired outcome for the EPAC1 agonist while no activity in this assay is desired for the EPAC2 agonist counterscreen.
# [1] de Rooij, J., Zwartkruis, F. J., Verheijen, M. H., Cool, R. H., Nijman, S. M., Wittinghofer, A., and Bos, J.L. (1998) Nature 396, 474-477
# NIH Chemical Genomics Center [NCGC]
# NIH Molecular Libraries Probe Centers Network [MLPCN]
# Assay Submitter (PI): Xiaodong Cheng, The University of Texas Medical Branch
# Briefly, three uL of reagents (100 nM EPAC1, 250 nM RAP1B-BODIPY-GDP, 50 uM GDP) were dispensed into a 1536-well Greiner black solid-bottom medium binding assay plate. Controls and test compounds (23 nL) were transferred to the plate via a Kalypsys pin tool equipped with a 1536-pin array. The plates were centrifuged at 1,000 rpm for 15 seconds followed by 5 minute incubation at room temperature. The assay plates were read at 5 minute intervals for 30 minutes in the ViewLux plate reader using 480nm excitation and 540nm emission filters. The results were normalized to the agonist positive control of 6.5 mM cAMP.
row,SMILES,activation
1,CCC(c1nnnn1C1CCCC1)N1CCC(n2c(=O)[nH]c3ccccc32)CC1 (centres undefined),inactive: -6.3%
2,COc1ccc(C(=O)NCC2(N3CCCCC3)CCCCC2)c(OC)c1OC,inactive: -3.27%
3,CC(C)(C)OC(=O)N1CCC(N(C(=O)c2ccccc2)c2ccc(F)cc2)CC1,inactive: 1.59%
4,COc1ccc(C(=O)NCC2(N3CCCCC3)CCCCC2)cc1,inactive: -0.522%
5,CCCCn1nnnc1C(c1cccs1)N1CCC(n2c(=O)[nH]c3ccccc32)CC1 (centres undefined),inactive: -7.31%
6,CCCCn1nnnc1C(CC)N1CCC(n2c(=O)[nH]c3ccccc32)CC1 (centres undefined),inactive: -0.766%
7,O=C(NCC1(N2CCCCC2)CCCCC1)c1cccs1,inactive: -27.7%
8,O=C(NCC1(N2CCCCC2)CCCCC1)c1ccc(=O)[nH]c1,inactive: -0.575%
9,Cc1cccc(NC2(C#N)CCN(Cc3ccccc3)CC2)c1,inactive: 0.377%
10,CSc1ccccc1C(=O)NCC1(N2CCCCC2)CCCCC1,inactive: 10.3%
11,Cc1cc(C)cc(N(C(=O)c2ccccc2)C2CCN(C(=O)OC(C)(C)C)CC2)c1,inactive: 1.15%
12,O=c1[nH]c2ccccc2n1C1CCN(C(c2ccccc2OC(F)(F)F)c2nnnn2C2CCCCC2)CC1 (centres undefined),inactive: 0.471%
13,O=C(NCC1(N2CCCCC2)CCCCC1)c1ccc(Cl)nc1,inactive: -13.6%
14,O=C(NCC1(N2CCOCC2)CCCCC1)c1cc2ccccc2o1,inactive: 4.42%
15,O=C1C(O)=C([N+](=O)[O-])C(=O)C(O)=C1[N+](=O)[O-],inactive: 0.141%
16,COc1ccc(Cl)cc1C(=O)NCC1(N2CCOCC2)CCCCC1,inactive: 1.69%
17,O=c1[nH]c2ccccc2n1C1CCN(C(c2cc3ccccc3o2)c2nnnn2C2CCCCC2)CC1 (centres undefined),inactive: -9.01%
18,O=C(OC1CN2CCC1CC2)C1c2ccccc2Oc2ccccc21 (centres undefined),inactive: -6.41%
19,O=C(NCC1(N2CCCCC2)CCCCC1)c1ccc(Cl)s1,inactive: -0.0415%
20,N#CC1(Nc2ccccc2)CCN(Cc2ccccc2)CC1,inactive: 1.18%
21,CCCCn1nnnc1C(c1ccc(OC)cc1)N1CCC(n2c(=O)[nH]c3ccccc32)CC1 (centres undefined),inactive: -4.4%
22,CCOC(=O)N1CCC(Nc2ccc(OC)cc2)CC1,inactive: 8.86%
23,O=C1CCN(Cc2ccccc2)CC1,inactive: -17.1%

row,SMILES,activation
1,CC(C)(C)n1nnnc1C(c1ccccc1)N1CCC(n2c(=O)[nH]c3ccccc32)CC1 (centres undefined),inactive: -4.37%
2,CCOc1ccc(C)cc1CN(CCCl)CCCl,inactive: -1.16%
3,CCOC(=O)N1CCC(Nc2ccc(F)cc2)CC1,inactive: 9.93%
4,COc1ccc(NC2CCN(CCc3ccccc3)CC2)c(OC)c1,inactive: 3.13%
5,O=C(NCC1(N2CCCCC2)CCCCC1)c1ccc(F)cc1,inactive: 8.98%
6,CCCCOc1ccc(C(=O)NCC2(N3CCOCC3)CCCCC2)cc1,inactive: -0.35%
7,CCCCn1nnnc1C(c1cc2ccccc2o1)N1CCC(n2c(=O)[nH]c3ccccc32)CC1 (centres undefined),inactive: -7.09%
8,O=P1(N(CCCl)CCCl)SCCCS1,inactive: 12.5%
9,O=c1[nH]c2ccccc2n1C1CCN(C(c2ccccc2)c2nnnn2C2CCCCC2)CC1 (centres undefined),inactive: 3.21%
10,COc1cc(C(=O)NCC2(N(C)C)CCCCC2)ccc1OC(F)F,inactive: -1.05%
11,CCOC(=O)N1CCC(Nc2cccc(C)c2)CC1,inactive: 2.7%
12,O=c1[nH]c2ccccc2n1C1CCN(C(c2cccc3ccccc23)c2nnnn2C2CCCC2)CC1 (centres undefined),inactive: -2.71%
13,O=C(NCC1(N2CCCCC2)CCCCC1)c1ccc(OC(F)F)cc1,inactive: 1.99%
14,CC(C)(C)n1nnnc1C(c1ccccc1OC(F)(F)F)N1CCC(n2c(=O)[nH]c3ccccc32)CC1 (centres undefined),inactive: -7.97%
15,N#CC1(Nc2ccccc2)CCN(CCc2ccccc2)CC1,inactive: -0.262%
16,O=c1[nH]c2ccccc2n1C1CCN(C(c2ccccc2OC(F)(F)F)c2nnnn2C2CCCC2)CC1 (centres undefined),inactive: -18.4%
17,CCN1CCC(Nc2ccc(Cl)cc2)CC1,inactive: 11.1%
18,O=C(NCC1(N2CCCCC2)CCCCC1)c1cccc([N+](=O)[O-])c1,inactive: -7.62%
19,CSc1ccc(C(=O)NCC2(N3CCOCC3)CCCCC2)cc1,inactive: 2.79%
20,O=[N+]([O-])c1cc([N+](=O)[O-])c(NCC2CCS(=O)(=O)C2)c([N+](=O)[O-])c1 (centres undefined),inactive: 0.0402%
21,O=C(NCC1(N2CCCCC2)CCCCC1)c1cccc(C(F)(F)F)c1,inactive: 6.46%
22,O=C(NCC1(N2CCOCC2)CCCCC1)c1cc(=O)[nH]c2ccccc12,inactive: 17.2%
23,COc1cc(C(=O)NCC2(N3CCCCC3)CCCCC2)ccc1OC(F)F,inactive: -7.51%

row,SMILES,activation
1,CCCCn1nnnc1C(c1cccc2ccccc12)N1CCC(n2c(=O)[nH]c3ccccc32)CC1 (centres undefined),inactive: 2.59%
2,COc1ccc(NC2CCN(C(=O)OC(C)(C)C)CC2)cc1,inactive: 3.67%
3,CC(C)c1ccc(C(=O)NCC2(N3CCOCC3)CCCCC2)cc1,inactive: 2.92%
4,CN1CCN(CCOC(=O)C(O)(c2ccccc2)c2ccccc2)CC1,inactive: 5.41%
5,CCCCn1nnnc1C(c1ccccc1OC(F)(F)F)N1CCC(n2c(=O)[nH]c3ccccc32)CC1 (centres undefined),inactive: -18.7%
6,CC(C)c1ccc(NC2CCN(C(=O)OC(C)(C)C)CC2)cc1,inactive: -13.4%
7,CN(C)c1cccc(C(=O)NCC2(N3CCCCC3)CCCCC2)c1,inactive: -6.07%
8,O=[N+]([O-])c1cc([N+](=O)[O-])c(OC2CCCCC2O)c([N+](=O)[O-])c1 (centres undefined),inactive: -4.4%
9,COc1ccc(CN(CCCl)CCCl)cc1Cl,inactive: -7.02%
10,CCN(CC)CCCNc1ccccc1[N+](=O)[O-].O=[N+]([O-])c1cc([N+](=O)[O-])c(O)c([N+](=O)[O-])c1,inactive: 13.3% [at 76.9 µM]
11,CCC(c1nnnn1C(C)(C)C)N1CCC(n2c(=O)[nH]c3ccccc32)CC1 (centres undefined),inactive: -7.4%
12,O=C(NCC1(N2CCOCC2)CCCCC1)c1cc(F)c(F)cc1Cl,inactive: -1.71%
13,COc1cc(OC)c(C(=O)NCC2(N(C)C)CCCCC2)cc1OC,inactive: 3.38%
14,CCCCn1nnnc1C(c1ccnc2ccccc12)N1CCC(n2c(=O)[nH]c3ccccc32)CC1 (centres undefined),inactive: -3.05%
15,O=C(OC1CN2CCC1CC2)c1ccc([N+](=O)[O-])cc1 (centres undefined),inactive: -0.902%
16,O=C(NCC1(N2CCCCC2)CCCCC1)c1cncc(Br)c1,inactive: 9.57%
17,COc1ccc2c(c1O)-c1c(O)c(OC)cc3c1[C@H](C2)[N+](C)(C)CC3.O=[N+]([O-])c1cc([N+](=O)[O-])c([O-])c([N+](=O)[O-])c1[O-],inactive: -1.66%
18,CN1CCC(Nc2cccc(F)c2)CC1,inactive: -1.7%
19,COc1ccc(C(c2nnnn2C2CCCC2)N2CCC(n3c(=O)[nH]c4ccccc43)CC2)cc1 (centres undefined),inactive: -4.16%
20,O=[N+]([O-])c1cc([N+](=O)[O-])c(Nc2ccc(Cl)cc2)c([N+](=O)[O-])c1,inactive: 12.1%
21,CCCOc1ccc(C(=O)NCC2(N(C)C)CCCCC2)cc1OC,inactive: 6.19%
22,Cc1ccc(C(=O)NCC2(N(C)C)CCCCC2)o1,inactive: -13.1%
23,COc1cc(C(=O)NCC2(N3CCOCC3)CCCCC2)cc(OC)c1C,inactive: 3.69%

row,SMILES,activation
1,CCCCn1nnnc1C(c1ccccc1)N1CCC(n2c(=O)[nH]c3ccccc32)CC1 (centres undefined),inactive: -4.47%
2,O=C(NCC1(N2CCOCC2)CCCCC1)c1cc(Br)ccc1Cl,inactive: -0.583%
3,O=c1[nH]c2ccccc2n1C1CCN(C(c2cccs2)c2nnnn2C2CCCCC2)CC1 (centres undefined),inactive: 7.58%
4,O=c1[nH]c2ccccc2n1C1CCN(C(c2ccnc3ccccc23)c2nnnn2C2CCCC2)CC1 (centres undefined),inactive: 10.1%
5,COc1ccc(C(=O)NCC2(N3CCOCC3)CCCCC2)cc1OC,inactive: -3.4%
6,COc1cccc(C(c2nnnn2C(C)(C)C)N2CCC(n3c(=O)[nH]c4ccccc43)CC2)c1OC (centres undefined),inactive: 16.2%
7,CCOC(=O)N1CCC(Nc2ccc(C)cc2)CC1,inactive: -2.96%
8,N/C(=N\O)c1c(N)no[n+]1[O-],inactive: -3.48%
9,O=c1[nH]c2ccccc2n1C1CCN(C(c2cccs2)c2nnnn2C2CCCC2)CC1 (centres undefined),inactive: 0.502%
10,O=C(O)c1cccc(Nc2c([N+](=O)[O-])cc([N+](=O)[O-])cc2[N+](=O)[O-])c1,inactive: 7.39%
11,O=C(OC1CN2CCC1CC2)C1c2ccccc2C=Cc2ccccc21 (centres undefined),inactive: -8.56%
12,CCc1cc(C(=O)NCC2(N3CCCCC3)CCCCC2)sc1C,inactive: -4.05%
13,CCCCn1nnnc1C(c1cccc(OC)c1OC)N1CCC(n2c(=O)[nH]c3ccccc32)CC1 (centres undefined),inactive: -0.629%
14,N#Cc1ccc(C(=O)NCC2(N3CCCCC3)CCCCC2)cc1,inactive: 1.24%
15,CC(C)(C)OC(=O)N1CCC(N(C(=O)c2ccccc2)c2ccc(Cl)cc2)CC1,inactive: -14.4%
16,CCOC(=O)C(CC)C1=NC(C)(C)Cc2ccccc21.O=[N+]([O-])c1cc([N+](=O)[O-])c(O)c([N+](=O)[O-])c1 (centres undefined),inactive: 8.89%
17,CN(C)C1(CNC(=O)c2cccc(C#N)c2)CCCCC1,inactive: -4.85%
18,CCCN1CCC(Nc2cc(OC)cc(OC)c2)CC1,inactive: 2.93%
19,O=c1[nH]c2ccccc2n1C1CCN(C(c2ccccc2)c2nnnn2C2CCCC2)CC1 (centres undefined),inactive: 5.34%
20,Cc1cc(N(CCCl)CCCl)ccc1C=O,inactive: -9.45%
